PubChem BioAssay AID1021 (Emory University Molecular Libraries Screening Center, 2008)
The entries are a selection whose mix differs from that of the whole data set. Activity calls are given as the source filed them.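 The calls were made as follows: active = compounds that cut the binding signal by more than half at the single screening dose; inactive = the rest.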

Chains of the proteins cited; added tags and fusions are not shown.
UniProt Q07820, whole entry: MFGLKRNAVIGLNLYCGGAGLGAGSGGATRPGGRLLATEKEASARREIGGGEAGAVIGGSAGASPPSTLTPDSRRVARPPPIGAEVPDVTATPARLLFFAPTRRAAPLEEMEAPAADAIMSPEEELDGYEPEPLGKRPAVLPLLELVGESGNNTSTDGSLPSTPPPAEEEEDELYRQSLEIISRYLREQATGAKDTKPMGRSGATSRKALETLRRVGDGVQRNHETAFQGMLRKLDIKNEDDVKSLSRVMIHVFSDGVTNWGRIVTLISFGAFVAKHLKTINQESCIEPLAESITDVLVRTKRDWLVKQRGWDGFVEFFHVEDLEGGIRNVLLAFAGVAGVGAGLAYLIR

Each compound was assayed against Induced myeloid leukemia cell differentiation protein Mcl-1 (Homo sapiens) (UniProt Q07820) (assay: Mcl-1/Bid binding inhibitors, primary screen, biochemical, TR-FRET, 1536-well (AID 1021;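 also: His-tagged Mcl-1 with europium anti-His antibody binding Bid BH3 peptide; 0% = Mcl-1 plus peptide wells and 100% = peptide-only wells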)). Details: TR-FRET Mcl-1/Bid-Dy647 peptide binding, at 21.7 µM, active compounds read high.

| Compound | inhibition |
| --- | --- |
| O=[As](O)(c1ccc(O)cc1)c1ccccc1O | inactive: 11.4% |
